For two compounds, IC50 results are on record in patent publication US10836759B2, “Thiazole derivatives useful as mutant IDH1 inhibitors for treating cancer” (THE UNITED STATES OF AMERICA, AS REPRESENTED BY THE …, priority 2016, dated 2020).

Chains of the proteins cited; added tags and fusions are not shown.
UniProt O75874, whole entry R132C: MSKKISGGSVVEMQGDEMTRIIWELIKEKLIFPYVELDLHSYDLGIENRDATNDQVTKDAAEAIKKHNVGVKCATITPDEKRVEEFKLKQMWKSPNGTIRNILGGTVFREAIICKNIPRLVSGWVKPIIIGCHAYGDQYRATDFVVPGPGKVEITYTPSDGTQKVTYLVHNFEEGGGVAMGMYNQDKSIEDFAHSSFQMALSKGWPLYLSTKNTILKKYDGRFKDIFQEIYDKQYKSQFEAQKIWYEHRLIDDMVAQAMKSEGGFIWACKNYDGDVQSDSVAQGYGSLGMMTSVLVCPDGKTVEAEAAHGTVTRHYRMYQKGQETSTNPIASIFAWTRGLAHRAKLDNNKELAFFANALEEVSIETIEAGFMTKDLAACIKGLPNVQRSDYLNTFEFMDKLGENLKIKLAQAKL
UniProt O75874, whole entry R132H: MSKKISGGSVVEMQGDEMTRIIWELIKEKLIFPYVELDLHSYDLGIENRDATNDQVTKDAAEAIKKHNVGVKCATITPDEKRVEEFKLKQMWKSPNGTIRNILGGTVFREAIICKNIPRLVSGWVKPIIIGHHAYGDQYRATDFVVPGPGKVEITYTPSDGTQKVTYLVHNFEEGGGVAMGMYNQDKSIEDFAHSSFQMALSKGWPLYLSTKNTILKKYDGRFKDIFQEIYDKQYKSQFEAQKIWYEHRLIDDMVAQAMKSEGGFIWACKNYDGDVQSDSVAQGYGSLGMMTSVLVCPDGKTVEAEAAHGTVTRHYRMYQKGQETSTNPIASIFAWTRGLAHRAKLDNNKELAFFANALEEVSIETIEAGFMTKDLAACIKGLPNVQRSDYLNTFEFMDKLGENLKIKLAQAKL

Molecules are shown by their SMILES.

For test [1], the target named is IDH1 R132H (Homo sapiens, UniProt O75874, R132H). Description: Enzymatic inhibition assay, mutant IDH1 R132H (NADPH depletion coupled to diaphorase/resazurin). Particulars: read-out: Data for R132H; IDH1 R132H enzyme, IC50 class. On the technique in general: Resazurin is reduced to fluorescent resorufin, in cell work by metabolically active cells.
The target in test [2] is IDH1 R132C (Homo sapiens, UniProt O75874, R132C). Description: Enzymatic inhibition assay, mutant IDH1 R132C (NADPH depletion coupled to diaphorase/resazurin). Particulars: read-out: Data for R132C; IDH1 R132C enzyme, IC50 class.

Take `CCc1cccc(CC)c1-n1c(C=C(C)C)c(C(=O)N2C[C@H]3CC[C@@H](C2)N3)cc(-c2nc(-c3ccc(Cl)cc3)cs2)c1=O`: the IC50 in test [1] and in test [2] was below 300 nM each time.
Regarding `CCc1cccc(CC)c1-n1c(C=C(C)C)c(C(=O)N2C[C@H]3CC[C@@H](C2)N3)cc(-c2nc(-c3ccc(C(F)(F)F)cc3)cs2)c1=O`, the IC50 in test [1] and in test [2] was below 300 nM each time.
